Results on one variant are retold here after IntAct's records for PubMed 20554658.

To fix the notation:
B1: Kelch-like protein 9 (Homo sapiens), Q9P2J3 (parent)
chain: MKVSLGNGEMGVSAHLQPCKAGTTRFFTSNTHSSVVLQGFDQLRIEGLLCDVTLVPGDGDEIFPVHRAMMASASDYFKAMFTGGMKEQDLMCIKLHGVNKVGLKKIIDFIYTAKLSLNMDNLQDTLEAASFLQILPVLDFCKVFLISGVSLDNCVEVGRIANTYNLIEVDKYVNNFILKNFPALLSTGEFLKLPFERLAFVLSSNSLKHCTELELFKAACRWLRLEDPRMDYAAKLMKNIRFPLMTPQDLINYVQTVDFMRTDNTCVNLLLEASNYQMMPYMQPVMQSDRTAIRSDSTHLVTLGGVLRQQLVVSKELRMYDERAQEWRSLAPMDAPRYQHGIAVIGNFLYVVGGQSNYDTKGKTAVDTVFRFDPRYNKWMQVASLNEKRTFFHLSALKGHLYAVGGRSAAGELATVECYNPRMNEWSYVAKMSEPHYGHAGTVYGGLMYISGGITHDTFQNELMCFDPDTDKWMQKAPMTTVRGLHCMCTVGDKLYVIGGNHFRGTSDYDDVLSCEYYSPTLDQWTPIAAMLRGQSDVGVAVFENKIYVVGGYSWNNRCMVEIVQKYDPEKDEWHKVFDLPESLGGIRACTLTVFPPEENPGSPSRESPLSAPSDHS

In the assay the parent is B1. To be noted: with cul3_human CUL3, Q13618.
For the variant L95F, the “effect of a mutation on the interaction” value is reported as “decreasing interaction strength”.
